Measured values reported in publication PMC7145534, “Are the intrinsically disordered linkers involved in SSB binding to accessory proteins?” (Nucleic Acids Research, 2019).

Target: T1, Escherichia coli single stranded DNA binding protein (SSB), wild-type tetramer (E. coli), P0AGE0
T1 chain: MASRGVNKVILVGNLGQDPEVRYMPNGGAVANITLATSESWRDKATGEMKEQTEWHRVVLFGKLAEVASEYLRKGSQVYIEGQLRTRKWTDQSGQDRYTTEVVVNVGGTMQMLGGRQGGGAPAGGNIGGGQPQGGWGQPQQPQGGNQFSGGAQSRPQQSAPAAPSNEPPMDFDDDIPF
Assay: AUC; sedimentation velocity, 42 000 rpm, 25°C; SSB construct 0.35 μM tetramer alone and with 3.5 μM RecO (2.5 molar excess per C-terminus); buffer BTP pH 7.0, 200 mM NaCl
Settings: remark: other sources report otherwise

B1: Escherichia coli single stranded DNA binding protein (SSB), wild-type tetramer, P0AGE0 1-178 (natural protein)
chain: MASRGVNKVILVGNLGQDPEVRYMPNGGAVANITLATSESWRDKATGEMKEQTEWHRVVLFGKLAEVASEYLRKGSQVYIEGQLRTRKWTDQSGQDRYTTEVVVNVGGTMQMLGGRQGGGAPAGGNIGGGQPQGGWGQPQQPQGGNQFSGGAQSRPQQSAPAAPSNEPPMDFDDDIPF
stoichiometry N: 4
